For 31 compounds, activation factor results are on record in PubChem BioAssay AID1136 (Sanford-Burnham Center for Chemical Genomics, 2008).

Amino acid sequences for entries named in this document (tags omitted).
UniProt P05186, whole entry: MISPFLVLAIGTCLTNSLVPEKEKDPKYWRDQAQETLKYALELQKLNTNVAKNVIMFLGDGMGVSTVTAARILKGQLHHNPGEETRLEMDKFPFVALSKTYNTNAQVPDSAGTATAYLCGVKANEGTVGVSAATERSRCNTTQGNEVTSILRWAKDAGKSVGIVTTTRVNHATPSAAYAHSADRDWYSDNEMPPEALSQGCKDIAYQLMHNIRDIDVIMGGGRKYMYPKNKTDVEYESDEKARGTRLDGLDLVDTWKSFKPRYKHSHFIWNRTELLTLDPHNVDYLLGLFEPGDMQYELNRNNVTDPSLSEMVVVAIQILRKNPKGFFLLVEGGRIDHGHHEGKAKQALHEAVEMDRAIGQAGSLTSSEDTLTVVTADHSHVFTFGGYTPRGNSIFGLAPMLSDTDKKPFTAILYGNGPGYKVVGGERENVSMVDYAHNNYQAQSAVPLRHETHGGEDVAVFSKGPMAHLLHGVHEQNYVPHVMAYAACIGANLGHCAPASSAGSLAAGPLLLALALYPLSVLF

Some of the results follow. Calls of active or inactive are those of the source.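 How the source made its calls: active means activation factor at least 2 at 20 µM; inactive means the rest.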

The target of the assay is Alkaline phosphatase, tissue-nonspecific isozyme (Homo sapiens) (UniProt P05186). In words: activation of human TNAP, high DEA acceptor – biochemical, luminescence, uHTS, primary screen (AID 1136). As to conditions: purified TNAP, CDP-star luminescence, 1 M DEA, 30 min, at 20 µM; stronger effect = higher value, 0 = EDTA background, 1 = DMSO-only activity.
In the case of `CCNC(=S)/N=C(\N)N[N+](=O)[O-]`, the activation factor result was “inactive”.

Regarding `O=C(NC1CCS(=O)(=O)C1)NP(=S)(Oc1ccccc1)Oc1ccccc1` (stereo unspecified), the activation factor result was “inactive”. For `c1ccc(-c2nn[nH]n2)c(-c2nn[nH]n2)c1`, the activation factor result is “inactive”. The value for `CCOC(=O)NC(Sc1ccccc1)C(Cl)(Cl)Cl` (stereo unspecified) was “inactive”; that for `CCOC(=O)c1ccc(NP(C)(=O)Oc2ccc(F)cc2)cc1` (stereo unspecified) was “inactive”. Take `COc1ccc(OP(C)(=O)Nc2ccc(SC(F)(F)F)cc2)cc1` (stereo unspecified): the activation factor is inactive: 1.1.

For `COC(=O)c1cc2c(s1)N=C(c1ccccc1)N(C)P2(=O)N1CCOCC1` (stereo unspecified), the activation factor entry is “inactive”. The entry for `CC(=O)NC(SC(=S)N(CC(C)C)CC(C)C)C(Cl)(Cl)Cl` (stereo unspecified) is “inactive”.

For `Cc1ccc(OP(=O)(Nc2ccccn2)Oc2ccc(C)cc2)cc1`, the activation factor entry is “inactive”. The entry for `CCN(CC)CCCOC(=O)C(O)(c1ccccc1)C1CCCCC1` (stereo unspecified) is “inactive”; for `CCC(=O)N1C2C3N(C(=O)CC)C1C1N(C(=O)CC)C(C(N1C(=O)CC)N3C(=O)CC)N2C(=O)CC` it is “inactive”. The value for `CP(=O)(Nc1ccccc1)Oc1ccc(F)cc1` (stereo unspecified) was “inactive”.

With `Cc1cc(C)cc(OP(C)(=O)Nc2cccc(C(F)(F)F)c2)c1` (stereo unspecified), the activation factor entry was “inactive”. The value for `Cc1cc(SC(NC(=O)c2ccc(F)cc2)C(Cl)(Cl)Cl)ncn1` (stereo unspecified) was “inactive”. The entry for `CCOP(=O)(Nc1ccccc1)OCC` is “inactive”; for `COc1ccccc1OP(C)(=O)Nc1ccc(C)c(C)c1` (stereo unspecified) it is “inactive”; for `COc1ccc(OP(C)(=O)Nc2ccccc2Br)cc1` (stereo unspecified) it is “inactive”. The value for `Cc1nc2ccc3ccccc3c2o1.O=[N+]([O-])c1cc([N+](=O)[O-])c(O)c([N+](=O)[O-])c1` was “inactive”; that for `CCN(N=Nc1nonc1N)c1nonc1N` was “inactive”; that for `CP(=O)(Nc1ccc(Cl)cc1Cl)Oc1ccccc1` (stereo unspecified) was “inactive”. For the compound `CP(=O)(OCCOc1ccccc1)OCCOc1ccccc1`, the activation factor entry is “inactive”. The entry for `NC(=O)c1cc([N+](=O)[O-])cc([N+](=O)[O-])c1N` is “inactive”; for `Cc1ccc(N/C(=N/P(=O)(N2CCOCC2)N2CCOCC2)N2CCOCC2)cc1` it is “inactive”.

As for `COc1ccccc1OP(=O)(Nc1ccc(C)cn1)Oc1ccccc1OC`, the activation factor entry is “inactive”.

As for `COc1ccc(OP(C)(=O)Nc2ccccn2)cc1` (stereo unspecified), the activation factor is inactive: 1.1. The value for `CN1CCCC(OC(=O)C(c2ccccc2)c2ccccc2)C1` (stereo unspecified) was “inactive”; that for `Clc1ccc(Cl)c(NC2=NCC(CBr)S2)c1` (stereo unspecified) was “inactive”. On to `CN(C)CCOC(=O)C(O)(c1ccccc1)C1CCCC1` (stereo unspecified), for which the activation factor entry is “inactive”. `Cc1c(NP(C)(=O)Oc2ccc(C(C)C)cc2)c(=O)n(-c2ccccc2)n1C` (stereo unspecified): the activation factor was inactive: 1.1. The entry for `CC(C)CC(=O)NC(Sc1ccc(Cl)cc1)C(Cl)(Cl)Cl` (stereo unspecified) is “inactive”; for `O=[N+]([O-])c1cc([N+](=O)[O-])c(Nc2ccccn2)c([N+](=O)[O-])c1` it is inactive: 0.7.
